Test in all cases: HTRF competition with biotinylated H4ac4 peptide
What all share (assay type): binding

The target in test [1] is human Brd4 BD1 (hBrd4 BD1) (Homo sapiens, UniProt O60885). The following applies: 5 nM GST-BD, 50 nM biotinylated H4ac4, pH 7.5, 4 °C, 4 h.
Test [2] deals with human Brd4 BD2 (hBrd4 BD2) (Homo sapiens, UniProt O60885). Particulars: 5 nM GST-BD, 600 nM biotinylated H4ac4, pH 7.5, 4 °C, 24 h.
For test [3], the target named is CgBdf1 BD2 (CgBD2) (Nakaseomyces glabratus, UniProt Q6FWV7). Particulars: 5 nM GST-BD, 250 nM biotinylated H4ac4, pH 7.5, 4 °C, 24 h.
Test [4] deals with CgBdf1 BD1 (CgBD1) (Nakaseomyces glabratus, UniProt Q6FWV7). The following applies: 5 nM GST-BD, 30 nM biotinylated H4ac4, pH 7.5, 4 °C, 4 h.

The source of these data is doi:10.1101/2023.02.03.527073v1 (biorxiv, 2023).

Each structure is given as a SMILES string.

For the compound `COc1cc2nc(C(=O)N3CCCCC3)cc(Nc3ccc(Br)cc3)c2cc1OC`, the IC50 in test [1] (n=3) and in test [2] (n=3) was > 20 µM throughout.

Regarding `COCCN1C(=O)c2ccccc2C(C(=O)Nc2cccc(NC(C)=O)c2)C12CCCCC2` (stereo not shown), the IC50 in test [3] (single replicate) is > 20 µM.

Regarding `CC(=O)Nc1ccc(CCc2nc3ccc(C(=O)NCc4ccco4)cc3[nH]2)cc1`, the IC50 in test [4] (n=3) was 2.84 µM; in test [3] (n=3), > 20 µM; in test [1] (n=3), > 20 µM; in test [2] (n=3), > 20 µM.

Take `COc1ccc(CNc2nc(-c3ccccc3)nnc2C)cc1`: the IC50 in test [4] (single replicate) was 5 µM; in test [3] (single replicate), > 20 µM.

For the compound `CC(=O)NCC(=O)N1CCC(c2cc(-c3ccc(F)cc3)n[nH]2)CC1`, the IC50 in test [4] (single replicate) was > 20 µM.

With `CC(=O)Nc1ccc(C(=O)N2CCC3(CC2)NC(c2ccccc2)=NO3)cc1`, the IC50 in test [3] (single replicate) and in test [1] (single replicate) was > 20 µM throughout.

`CC(=O)Nc1ccc(CCc2nc3cc(C(=O)NC4CC4)ccc3[nH]2)cc1`: the IC50 in test [4] (single replicate) was > 20 µM.

In the case of `CN(C)c1ccc(CNC(=O)c2cc3c(=O)n(C)ccc3n2C)cc1`, the results for the IC50 in test [4] (single replicate), in test [3] (single replicate) and in test [2] (single replicate) were 19 µM, 8.2 µM and 2.7 µM, respectively.
